Values of other authors as cited in US20250205181A1, “ANANDAMIDE CYCLODEXTRIN INCLUSION COMPLEX VEHICLES” (CZAP RESEARCH AND DEVELOPMENT, LLC, priority 2021, published 2025).

Sequences of proteins named here, by UniProt entry; tags and fusion partners are left off.
UniProt P20272, whole entry: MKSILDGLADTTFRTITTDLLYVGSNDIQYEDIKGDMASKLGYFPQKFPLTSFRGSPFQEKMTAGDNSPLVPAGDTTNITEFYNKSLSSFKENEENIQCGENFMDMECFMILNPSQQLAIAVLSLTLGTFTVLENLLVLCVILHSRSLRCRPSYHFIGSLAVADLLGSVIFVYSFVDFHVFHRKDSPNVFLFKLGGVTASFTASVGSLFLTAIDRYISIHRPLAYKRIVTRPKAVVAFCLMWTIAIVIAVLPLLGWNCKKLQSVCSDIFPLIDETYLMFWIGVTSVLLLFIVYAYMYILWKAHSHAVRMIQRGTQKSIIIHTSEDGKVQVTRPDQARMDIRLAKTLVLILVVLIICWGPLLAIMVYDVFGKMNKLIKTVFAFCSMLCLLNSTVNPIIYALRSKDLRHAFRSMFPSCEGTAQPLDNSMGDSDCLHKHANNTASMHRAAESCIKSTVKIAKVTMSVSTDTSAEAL

Target: CB1 receptor (Rattus norvegicus, UniProt P20272)
Conditions: literature value, Lin et al., J Med Chem 1998; cited from earlier work

SMILES: CCCCC/C=C\C/C=C\C/C=C\C/C=C\CCCC(=O)NCCO [anandamide, (5Z,8Z,11Z,14Z)-N-(2-hydroxyethyl)icosa-5,8,11,14-tetraenamide]
- Ki: < 100 nM
